Activity calls are given as the source filed them.
Assays:
[1] = biological target: Short transient receptor potential channel 5 (Homo sapiens) (UniProt Q9UL62); test: Inhibition of human TRPC5 expressed in HEK293T cell membrane at 30 uM in presence of englerin A; format: cell membranes
[2] = biological target: G-protein coupled receptor 39 (Homo sapiens) (UniProt O43194); test: Inhibition of human GPR39 expressed in HEK293T cell membrane at 30 uM in presence of Zn; format: cell membranes
[3] = biological target: Potassium voltage-gated channel subfamily B member 1 (Rattus norvegicus) (UniProt P15387); test: Activation of rat Kv2.1 channel expressed in HEK293 cells at 30 uM; format: cell-based
[4] = biological target: Sodium channel protein type 2 subunit alpha (Homo sapiens) (UniProt Q99250); test: Inhibition of human Nav1.2 channel expressed in HEK293T cell membrane at 30 uM; format: cell membranes
[5] = biological target: Short transient receptor potential channel 5 (Homo sapiens) (UniProt Q9UL62); test: Activation of human TRPC5 expressed in HEK293T cell membrane at 30 uM in presence of englerin A; format: cell membranes
[6] = biological target: Transient receptor potential cation channel subfamily V member 4 (Homo sapiens) (UniProt Q9HBA0); test: Inhibition of human TRPV4 expressed in HEK293T cell membrane at 30 uM in presence of GSK; format: cell membranes
[7] = biological target: Sodium channel protein type 9 subunit alpha (Homo sapiens) (UniProt Q15858); test: Inhibition of human Nav1.7 channel expressed in HEK293T cell membrane at 30 uM; format: cell membranes
[8] = biological target: Sodium channel protein type 4 subunit alpha (Homo sapiens) (UniProt P35499); test: Activation of human Nav1.4 channel expressed in HEK293T cell membrane at 30 uM; format: cell membranes
[9] = biological target: Potassium voltage-gated channel subfamily A member 3 (Homo sapiens) (UniProt P22001); test: Inhibition of human Kv1.3 channel expressed in HEK293 cells at 30 uM; format: cell-based
[10] = biological target: Transient receptor potential cation channel subfamily V member 4 (Homo sapiens) (UniProt Q9HBA0); test: Activation of human TRPV4 expressed in HEK293T cell membrane at 30 uM in presence of GSK; format: cell membranes
[11] = biological target: Short transient receptor potential channel 7 (Homo sapiens) (UniProt Q9HCX4); test: Activation of human TRPC7 expressed in HEK293T cell membrane at 30 uM in presence of OAG; format: cell membranes
[12] = biological target: Short transient receptor potential channel 3 (Homo sapiens) (UniProt Q13507); test: Inhibition of human TRPC3 expressed in HEK293T cell membrane at 30 uM in presence of OAG; format: cell membranes
[13] = biological target: Voltage-gated potassium channel KCNC1 (Homo sapiens) (UniProt P48547); test: Inhibition of human Kv3.1 channel expressed in HEK293 cells at 30 uM; format: cell-based
[14] = biological target: Mas-related G-protein coupled receptor member X1 (Homo sapiens) (UniProt Q96LB2); test: Inhibition of human MRGPRX1 expressed in HEK293T cell membrane at 30 uM in presence of BAM 8-12; format: cell membranes
[15] = biological target: Sodium channel protein type 4 subunit alpha (Homo sapiens) (UniProt P35499); test: Inhibition of human Nav1.4 channel expressed in HEK293T cell membrane at 30 uM; format: cell membranes
[16] = biological target: Transient receptor potential cation channel subfamily M member 8 (Homo sapiens) (UniProt Q7Z2W7); test: Activation of human TRPM8 expressed in HEK293T cell membrane at 30 uM in presence of menthol; format: cell membranes
[17] = biological target: Potassium voltage-gated channel subfamily B member 1 (Rattus norvegicus) (UniProt P15387); test: Inhibition of rat Kv2.1 channel expressed in HEK293 cells at 30 uM; format: cell-based
[18] = biological target: Short transient receptor potential channel 3 (Homo sapiens) (UniProt Q13507); test: Activation of human TRPC3 expressed in HEK293T cell membrane at 30 uM in presence of OAG; format: cell membranes
[19] = biological target: Transient receptor potential cation channel subfamily M member 8 (Homo sapiens) (UniProt Q7Z2W7); test: Inhibition of human TRPM8 expressed in HEK293T cell membrane at 30 uM in presence of menthol; format: cell membranes
[20] = biological target: Sodium channel protein type 1 subunit alpha (Homo sapiens) (UniProt P35498); test: Activation of human Nav1.1 channel expressed in HEK293T cell membrane at 30 uM; format: cell membranes
[21] = biological target: A-type voltage-gated potassium channel KCND2 (Rattus norvegicus) (UniProt Q63881); test: Activation of rat Kv4.2 channel expressed in HEK293 cells at 30 uM; format: cell-based
[22] = biological target: Short transient receptor potential channel 6 (Homo sapiens) (UniProt Q9Y210); test: Activation of human TRPC6 expressed in HEK293T cell membrane at 30 uM in presence of OAG; format: cell membranes
[23] = biological target: Mas-related G-protein coupled receptor member X1 (Homo sapiens) (UniProt Q96LB2); test: Activation of human MRGPRX1 expressed in HEK293T cell membrane at 30 uM in presence of BAM 8-12; format: cell membranes
[24] = biological target: Sodium channel protein type 2 subunit alpha (Homo sapiens) (UniProt Q99250); test: Activation of human Nav1.2 channel expressed in HEK293T cell membrane at 30 uM; format: cell membranes
[25] = biological target: Sodium channel protein type 10 subunit alpha (Homo sapiens) (UniProt Q9Y5Y9); test: Activation of human Nav1.8 channel expressed in HEK293T cell membrane at 30 uM; format: cell membranes
[26] = biological target: Potassium voltage-gated channel subfamily A member 5 (Homo sapiens) (UniProt P22460); test: Inhibition of human Kv1.5 channel expressed in HEK293 cells at 30 uM; format: cell-based
[27] = biological target: Potassium voltage-gated channel subfamily A member 5 (Homo sapiens) (UniProt P22460); test: Activation of human Kv1.5 channel expressed in HEK293 cells at 30 uM; format: cell-based
[28] = biological target: Potassium voltage-gated channel subfamily A member 2 (Homo sapiens) (UniProt P16389); test: Activation of human Kv1.2 channel expressed in HEK293 cells at 30 uM; format: cell-based
[29] = biological target: Short transient receptor potential channel 7 (Homo sapiens) (UniProt Q9HCX4); test: Inhibition of human TRPC7 expressed in HEK293T cell membrane at 30 uM in presence of OAG; format: cell membranes
[30] = biological target: Voltage-gated potassium channel KCNC1 (Homo sapiens) (UniProt P48547); test: Activation of human Kv3.1 channel expressed in HEK293 cells at 30 uM; format: cell-based
[31] = biological target: G-protein coupled receptor 39 (Homo sapiens) (UniProt O43194); test: Activation of human GPR39 expressed in HEK293T cell membrane at 30 uM in presence of Zn; format: functional, cell membranes
[32] = biological target: Sodium channel protein type 1 subunit alpha (Homo sapiens) (UniProt P35498); test: Inhibition of human Nav1.1 channel expressed in HEK293T cell membrane at 30 uM; format: cell membranes
[33] = biological target: Potassium voltage-gated channel subfamily A member 3 (Homo sapiens) (UniProt P22001); test: Activation of human Kv1.3 channel expressed in HEK293 cells at 30 uM; format: cell-based
[34] = biological target: Transient receptor potential cation channel subfamily V member 2 (Mus musculus) (UniProt Q9WTR1); test: Activation of mouse TRPV2 expressed in HEK293T cell membrane at 30 uM in presence of 2-APB; format: cell membranes
[35] = biological target: Potassium voltage-gated channel subfamily A member 2 (Homo sapiens) (UniProt P16389); test: Inhibition of human Kv1.2 channel expressed in HEK293 cells at 30 uM; format: cell-based
[36] = biological target: A-type voltage-gated potassium channel KCND2 (Rattus norvegicus) (UniProt Q63881); test: Inhibition of rat Kv4.2 channel expressed in HEK293 cells at 30 uM; format: cell-based
[37] = biological target: Transient receptor potential cation channel subfamily V member 2 (Mus musculus) (UniProt Q9WTR1); test: Inhibition of mouse TRPV2 expressed in HEK293T cell membrane at 30 uM in presence of 2-APB; format: cell membranes
[38] = biological target: Sodium channel protein type 8 subunit alpha (Homo sapiens) (UniProt Q9UQD0); test: Inhibition of human Nav1.6 channel expressed in HEK293T cell membrane at 30 uM; format: cell membranes
[39] = biological target: Sodium channel protein type 9 subunit alpha (Homo sapiens) (UniProt Q15858); test: Activation of human Nav1.7 channel expressed in HEK293T cell membrane at 30 uM; format: cell membranes
[40] = biological target: Short transient receptor potential channel 6 (Homo sapiens) (UniProt Q9Y210); test: Inhibition of human TRPC6 expressed in HEK293T cell membrane at 30 uM in presence of OAG; format: cell membranes
[41] = biological target: Sodium channel protein type 8 subunit alpha (Homo sapiens) (UniProt Q9UQD0); test: Activation of human Nav1.6 channel expressed in HEK293T cell membrane at 30 uM; format: cell membranes
[42] = biological target: Sodium channel protein type 10 subunit alpha (Homo sapiens) (UniProt Q9Y5Y9); test: Inhibition of human Nav1.8 channel expressed in HEK293T cell membrane at 30 uM; format: cell membranes

Amino acid sequences for entries named in this document (tags omitted). A change or cut given only in a name is not applied to a line headed by its entry.
UniProt Q9UL62: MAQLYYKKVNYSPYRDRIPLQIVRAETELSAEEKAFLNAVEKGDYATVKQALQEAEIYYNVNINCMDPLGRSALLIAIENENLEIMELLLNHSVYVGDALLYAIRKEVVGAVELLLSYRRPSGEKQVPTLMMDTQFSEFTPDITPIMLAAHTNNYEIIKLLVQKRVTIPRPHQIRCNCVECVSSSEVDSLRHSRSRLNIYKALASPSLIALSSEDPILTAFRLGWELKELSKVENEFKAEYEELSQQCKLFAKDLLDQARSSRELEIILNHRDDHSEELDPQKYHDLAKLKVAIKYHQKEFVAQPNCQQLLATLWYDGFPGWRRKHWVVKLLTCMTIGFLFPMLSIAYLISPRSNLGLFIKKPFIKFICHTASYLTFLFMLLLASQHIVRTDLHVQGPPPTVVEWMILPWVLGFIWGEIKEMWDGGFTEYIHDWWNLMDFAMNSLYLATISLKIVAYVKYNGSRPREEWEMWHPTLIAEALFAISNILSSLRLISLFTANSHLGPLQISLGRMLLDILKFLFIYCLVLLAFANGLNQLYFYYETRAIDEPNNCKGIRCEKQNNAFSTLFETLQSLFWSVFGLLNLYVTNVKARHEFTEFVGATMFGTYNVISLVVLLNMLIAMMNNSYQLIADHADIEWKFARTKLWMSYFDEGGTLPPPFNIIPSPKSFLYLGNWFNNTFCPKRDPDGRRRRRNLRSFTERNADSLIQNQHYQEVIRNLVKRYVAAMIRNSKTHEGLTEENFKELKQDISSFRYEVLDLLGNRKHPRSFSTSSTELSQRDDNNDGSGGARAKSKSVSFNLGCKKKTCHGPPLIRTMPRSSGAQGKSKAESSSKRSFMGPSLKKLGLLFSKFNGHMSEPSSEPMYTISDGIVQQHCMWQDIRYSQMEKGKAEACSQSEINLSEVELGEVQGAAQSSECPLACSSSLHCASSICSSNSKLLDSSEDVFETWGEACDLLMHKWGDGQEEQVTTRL
UniProt O43194: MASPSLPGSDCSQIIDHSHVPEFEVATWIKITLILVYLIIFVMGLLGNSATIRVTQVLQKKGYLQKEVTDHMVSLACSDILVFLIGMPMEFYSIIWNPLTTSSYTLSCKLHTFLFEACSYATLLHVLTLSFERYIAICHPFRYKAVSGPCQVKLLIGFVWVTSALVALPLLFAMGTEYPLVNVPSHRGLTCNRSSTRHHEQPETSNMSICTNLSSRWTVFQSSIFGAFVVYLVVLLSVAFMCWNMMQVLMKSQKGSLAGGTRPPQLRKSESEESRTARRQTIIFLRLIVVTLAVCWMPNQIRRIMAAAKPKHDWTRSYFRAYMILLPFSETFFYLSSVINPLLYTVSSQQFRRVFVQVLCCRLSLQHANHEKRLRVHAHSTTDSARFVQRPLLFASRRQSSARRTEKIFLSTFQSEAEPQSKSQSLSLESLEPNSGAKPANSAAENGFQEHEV
UniProt P48547: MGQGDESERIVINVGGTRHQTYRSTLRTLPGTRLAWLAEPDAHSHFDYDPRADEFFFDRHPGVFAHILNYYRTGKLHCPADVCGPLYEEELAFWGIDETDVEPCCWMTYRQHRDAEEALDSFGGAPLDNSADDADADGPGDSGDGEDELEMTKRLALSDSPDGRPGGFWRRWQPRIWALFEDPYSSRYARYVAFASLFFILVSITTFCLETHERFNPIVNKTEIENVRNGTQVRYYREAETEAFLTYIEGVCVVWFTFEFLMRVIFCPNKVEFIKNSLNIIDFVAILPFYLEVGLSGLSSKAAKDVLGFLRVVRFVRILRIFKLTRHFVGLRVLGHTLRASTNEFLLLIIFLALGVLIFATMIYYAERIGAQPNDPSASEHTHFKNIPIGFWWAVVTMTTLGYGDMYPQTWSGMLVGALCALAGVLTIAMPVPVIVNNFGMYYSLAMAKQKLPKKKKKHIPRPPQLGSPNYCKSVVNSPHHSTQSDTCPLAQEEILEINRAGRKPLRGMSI
UniProt Q63881: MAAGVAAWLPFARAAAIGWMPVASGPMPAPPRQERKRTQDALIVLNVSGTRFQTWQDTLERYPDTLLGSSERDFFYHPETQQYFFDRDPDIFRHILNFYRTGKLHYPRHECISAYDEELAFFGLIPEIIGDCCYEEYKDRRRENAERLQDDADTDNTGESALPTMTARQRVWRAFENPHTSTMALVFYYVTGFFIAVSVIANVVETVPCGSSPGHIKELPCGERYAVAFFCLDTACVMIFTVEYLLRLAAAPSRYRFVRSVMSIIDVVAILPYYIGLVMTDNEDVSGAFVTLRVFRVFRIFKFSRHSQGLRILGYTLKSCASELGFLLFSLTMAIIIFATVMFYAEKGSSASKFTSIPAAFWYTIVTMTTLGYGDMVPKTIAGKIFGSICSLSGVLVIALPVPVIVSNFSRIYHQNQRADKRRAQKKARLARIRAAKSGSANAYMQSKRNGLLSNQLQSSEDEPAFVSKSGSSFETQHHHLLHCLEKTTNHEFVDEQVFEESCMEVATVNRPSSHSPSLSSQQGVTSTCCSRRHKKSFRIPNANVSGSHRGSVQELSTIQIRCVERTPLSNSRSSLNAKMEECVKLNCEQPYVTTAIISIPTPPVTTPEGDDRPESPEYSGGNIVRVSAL
UniProt Q9Y210: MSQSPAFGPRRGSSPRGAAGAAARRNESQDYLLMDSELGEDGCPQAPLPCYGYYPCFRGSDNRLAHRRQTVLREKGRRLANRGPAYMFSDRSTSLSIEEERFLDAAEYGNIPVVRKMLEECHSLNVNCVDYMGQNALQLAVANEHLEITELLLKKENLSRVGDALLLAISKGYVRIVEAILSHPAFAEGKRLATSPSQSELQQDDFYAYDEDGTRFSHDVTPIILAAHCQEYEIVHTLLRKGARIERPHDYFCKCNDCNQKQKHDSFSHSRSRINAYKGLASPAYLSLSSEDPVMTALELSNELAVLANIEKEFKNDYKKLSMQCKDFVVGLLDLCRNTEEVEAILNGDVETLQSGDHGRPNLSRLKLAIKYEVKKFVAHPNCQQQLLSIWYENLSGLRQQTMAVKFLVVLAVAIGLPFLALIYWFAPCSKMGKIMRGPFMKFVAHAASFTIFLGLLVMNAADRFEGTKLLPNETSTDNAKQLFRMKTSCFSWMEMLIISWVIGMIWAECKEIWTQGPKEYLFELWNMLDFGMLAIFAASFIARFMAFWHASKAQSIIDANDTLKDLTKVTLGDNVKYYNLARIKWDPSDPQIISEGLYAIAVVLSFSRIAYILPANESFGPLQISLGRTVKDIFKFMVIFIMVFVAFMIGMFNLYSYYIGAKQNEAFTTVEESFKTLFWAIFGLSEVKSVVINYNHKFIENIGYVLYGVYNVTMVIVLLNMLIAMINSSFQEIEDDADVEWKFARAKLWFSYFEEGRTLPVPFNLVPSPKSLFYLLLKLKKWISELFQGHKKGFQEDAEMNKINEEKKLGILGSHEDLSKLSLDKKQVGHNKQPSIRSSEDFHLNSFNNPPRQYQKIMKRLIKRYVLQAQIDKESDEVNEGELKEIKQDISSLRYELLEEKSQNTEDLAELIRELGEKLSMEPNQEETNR
UniProt P22460, whole entry: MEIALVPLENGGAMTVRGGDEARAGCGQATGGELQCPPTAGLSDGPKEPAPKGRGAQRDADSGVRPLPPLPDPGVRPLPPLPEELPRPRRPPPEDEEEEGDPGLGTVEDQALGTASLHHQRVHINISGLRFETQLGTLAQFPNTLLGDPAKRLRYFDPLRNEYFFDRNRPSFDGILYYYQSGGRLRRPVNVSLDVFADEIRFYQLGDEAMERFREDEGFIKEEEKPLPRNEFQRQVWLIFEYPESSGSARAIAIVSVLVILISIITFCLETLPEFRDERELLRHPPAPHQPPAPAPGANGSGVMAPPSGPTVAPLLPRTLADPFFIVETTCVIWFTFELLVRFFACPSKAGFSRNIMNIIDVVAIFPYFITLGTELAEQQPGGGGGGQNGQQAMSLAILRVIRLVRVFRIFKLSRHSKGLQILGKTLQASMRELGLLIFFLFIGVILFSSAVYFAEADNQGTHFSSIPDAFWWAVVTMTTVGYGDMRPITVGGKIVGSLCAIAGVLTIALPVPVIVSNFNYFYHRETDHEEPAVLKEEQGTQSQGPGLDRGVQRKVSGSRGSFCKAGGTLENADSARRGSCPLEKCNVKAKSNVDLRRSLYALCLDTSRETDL
UniProt P16389, whole entry: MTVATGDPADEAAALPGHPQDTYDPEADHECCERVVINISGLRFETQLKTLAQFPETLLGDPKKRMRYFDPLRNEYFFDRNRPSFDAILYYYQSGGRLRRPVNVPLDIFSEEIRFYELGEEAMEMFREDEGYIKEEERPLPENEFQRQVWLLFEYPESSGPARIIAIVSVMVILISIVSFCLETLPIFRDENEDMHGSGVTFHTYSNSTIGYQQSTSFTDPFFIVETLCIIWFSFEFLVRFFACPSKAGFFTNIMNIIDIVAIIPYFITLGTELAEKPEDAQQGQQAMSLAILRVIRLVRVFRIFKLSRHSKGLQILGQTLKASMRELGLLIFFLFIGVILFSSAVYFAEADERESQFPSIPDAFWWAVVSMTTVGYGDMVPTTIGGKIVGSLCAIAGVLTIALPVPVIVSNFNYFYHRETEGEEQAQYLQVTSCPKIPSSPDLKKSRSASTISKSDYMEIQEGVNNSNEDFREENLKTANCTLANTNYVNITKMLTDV
UniProt Q9UQD0, whole entry, looked up: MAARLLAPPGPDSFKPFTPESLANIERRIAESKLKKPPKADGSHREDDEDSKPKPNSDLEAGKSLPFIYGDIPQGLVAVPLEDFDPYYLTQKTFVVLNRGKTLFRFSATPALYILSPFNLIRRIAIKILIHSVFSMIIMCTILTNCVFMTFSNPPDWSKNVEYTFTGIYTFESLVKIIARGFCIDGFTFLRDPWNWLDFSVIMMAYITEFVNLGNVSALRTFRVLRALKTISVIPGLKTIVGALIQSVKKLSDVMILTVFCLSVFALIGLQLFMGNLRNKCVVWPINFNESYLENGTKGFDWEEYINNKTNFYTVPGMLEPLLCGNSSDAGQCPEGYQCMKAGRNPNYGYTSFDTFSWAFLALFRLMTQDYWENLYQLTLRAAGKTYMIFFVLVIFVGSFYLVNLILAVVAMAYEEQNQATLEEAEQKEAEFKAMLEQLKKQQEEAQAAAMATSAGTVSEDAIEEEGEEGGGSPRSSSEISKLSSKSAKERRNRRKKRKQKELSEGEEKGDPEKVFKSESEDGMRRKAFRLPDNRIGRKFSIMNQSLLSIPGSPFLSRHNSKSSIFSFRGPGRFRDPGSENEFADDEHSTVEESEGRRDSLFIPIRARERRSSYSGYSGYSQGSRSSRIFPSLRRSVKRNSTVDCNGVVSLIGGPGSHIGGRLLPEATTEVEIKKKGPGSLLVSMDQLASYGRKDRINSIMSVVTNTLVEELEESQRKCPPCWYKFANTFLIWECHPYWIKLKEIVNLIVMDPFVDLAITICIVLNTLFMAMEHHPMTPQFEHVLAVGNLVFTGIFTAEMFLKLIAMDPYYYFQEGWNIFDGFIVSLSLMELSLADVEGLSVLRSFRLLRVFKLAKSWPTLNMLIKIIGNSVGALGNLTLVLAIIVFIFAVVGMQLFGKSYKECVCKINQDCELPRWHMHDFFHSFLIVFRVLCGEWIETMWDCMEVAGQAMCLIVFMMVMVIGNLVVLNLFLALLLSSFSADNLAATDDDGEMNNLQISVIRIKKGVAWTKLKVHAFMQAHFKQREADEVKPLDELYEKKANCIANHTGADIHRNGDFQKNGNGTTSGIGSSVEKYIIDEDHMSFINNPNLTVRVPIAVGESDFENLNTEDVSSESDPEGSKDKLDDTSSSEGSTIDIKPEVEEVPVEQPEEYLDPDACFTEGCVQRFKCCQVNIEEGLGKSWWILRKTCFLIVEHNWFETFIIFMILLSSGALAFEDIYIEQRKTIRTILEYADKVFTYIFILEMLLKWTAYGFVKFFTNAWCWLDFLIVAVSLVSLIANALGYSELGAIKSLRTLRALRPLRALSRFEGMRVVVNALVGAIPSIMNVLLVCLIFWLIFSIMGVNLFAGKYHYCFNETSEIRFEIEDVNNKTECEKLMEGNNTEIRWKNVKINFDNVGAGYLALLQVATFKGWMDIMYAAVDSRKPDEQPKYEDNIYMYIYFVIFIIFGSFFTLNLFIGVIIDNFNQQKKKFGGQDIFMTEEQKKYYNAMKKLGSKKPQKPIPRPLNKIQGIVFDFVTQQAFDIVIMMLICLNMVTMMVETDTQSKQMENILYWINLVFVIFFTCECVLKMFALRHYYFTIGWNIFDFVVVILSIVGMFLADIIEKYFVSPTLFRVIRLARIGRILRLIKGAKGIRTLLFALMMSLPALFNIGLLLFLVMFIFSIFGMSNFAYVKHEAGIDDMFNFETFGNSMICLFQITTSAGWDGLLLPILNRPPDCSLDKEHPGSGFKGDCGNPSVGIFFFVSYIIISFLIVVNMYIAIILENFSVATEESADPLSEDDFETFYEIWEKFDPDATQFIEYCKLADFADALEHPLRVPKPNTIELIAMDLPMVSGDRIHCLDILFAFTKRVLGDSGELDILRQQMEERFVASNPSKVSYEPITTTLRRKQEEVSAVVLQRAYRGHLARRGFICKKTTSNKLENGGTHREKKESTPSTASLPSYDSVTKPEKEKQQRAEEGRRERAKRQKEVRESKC

Cc1ccccc1CC1OC(=O)c2cc(C3CCNCC3)ccc21 (configuration not stated)
inactive: inhibition [1] | inhibition [2] | Activity [3] | inhibition [4] | Activity [5] | inhibition [6] | inhibition [7] | Activity [8] | inhibition [9] | Activity [10] | Activity [11] | inhibition [12] | inhibition [13] | inhibition [14] | inhibition [15] | Activity [16] | inhibition [17] | Activity [18] | inhibition [19] | Activity [20] | Activity [21] | Activity [22] | Activity [23] | Activity [24] | Activity [25] | inhibition [26] | Activity [27] | Activity [28] | inhibition [29] | Activity [30] | Activity [31] | inhibition [32] | Activity [33] | Activity [34] | inhibition [35] | inhibition [36] | inhibition [37] | inhibition [38] | Activity [39] | inhibition [40] | Activity [41] | inhibition [42]

Source: ChEMBL document CHEMBL6153175, “Discovery of Isobenzofuran-1(3H)-one Derivatives as Selective TREK-1 Inhibitors with In Vitro and In Vivo Neuroprotective Effects” (J Med Chem, 2025)
